IC50 data for 36 compounds are collected here from US8168651B2, “Protein kinase modulators” (Cylene Pharmaceuticals, Inc., priority 2008, dated 2012).

By UniProt entry, the sequences of proteins in these tests, tags left out.
UniProt P68400, whole entry: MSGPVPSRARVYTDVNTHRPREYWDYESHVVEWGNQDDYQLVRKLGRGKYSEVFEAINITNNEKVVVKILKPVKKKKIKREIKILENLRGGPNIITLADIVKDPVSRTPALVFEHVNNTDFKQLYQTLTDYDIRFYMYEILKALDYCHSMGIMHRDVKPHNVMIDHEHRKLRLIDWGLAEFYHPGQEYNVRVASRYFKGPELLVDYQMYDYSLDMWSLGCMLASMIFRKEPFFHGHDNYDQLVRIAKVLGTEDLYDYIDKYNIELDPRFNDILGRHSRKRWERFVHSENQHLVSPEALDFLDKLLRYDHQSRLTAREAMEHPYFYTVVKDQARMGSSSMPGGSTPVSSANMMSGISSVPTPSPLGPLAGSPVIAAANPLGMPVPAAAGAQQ

The target of one test is recombinant human CK2 (Homo sapiens (Human), UniProt P68400). The experiment in a line: CK2 assay (cell-free, 33P-ATP filter plate). The settings on record: read-out: CK2 (15 um ATP) IC50; 15 um ATP, cell-free assay.
As a reminder, the IC50 is the concentration at which inhibition is half-maximal. For the compound `CCOc1ncc2c(n1)c(Nc1cccc(C(F)(F)F)c1)nc1cc(C(=O)O)ccc12` [drawing 1591], the IC50 was above 0.75 µM.

Take `CN(C)c1ncc2c(n1)c(Nc1cccc(Cl)c1)nc1cc(C(=O)O)ccc12` [drawing 1593]: the half-inhibitory concentration (IC50) was above 0.75 µM.

For `C#Cc1cccc(Nc2nc3cc(C(=O)OC)ccc3c3cnc(NOC)nc23)c1` [drawing 1609], the 50% inhibitory concentration (IC50) is above 0.75 µM.

In the case of `COC(=O)c1ccc2c(c1)nc(Nc1cccc(Cl)c1)c1nc(NCCC(N)=O)ncc12` [drawing 1610], the IC50 was above 0.75 µM.

In the case of `COC(=O)c1ccc2c(c1)nc(NC1CC1)c1nc(SCc3ccccc3Cl)ncc12` [drawing 1611], the IC50 was above 0.75 µM.

For the compound `O=C(O)c1ccc2c(c1)nc(NC1CC1)c1nc(SCc3ccccc3Cl)ncc12` [drawing 1614], the IC50 is above 0.75 µM.

For `O=C(O)c1ccc2c(c1)nc(Nc1cncc(C3CC3)c1)c1ccncc12` [drawing 1619], the IC50 is above 0.75 µM.

As to `NC(=O)c1ccc2c(c1)nc(Nc1cccc(C(F)(F)F)c1)c1nc(NC3CC3)ncc12` [drawing 1632], the 50% inhibitory concentration (IC50) is above 0.75 µM.

Turning to `O=C(NC1CC1)c1ccc2c(c1)nc(Nc1cccc(C(F)(F)F)c1)c1nc(NC3CC3)ncc12` [drawing 1633], the IC50 is above 0.75 µM.

With `CNC(=O)c1ccc2c(c1)nc(Nc1cccc(C(F)(F)F)c1)c1nc(NC3CC3)ncc12` [drawing 1634], the IC50 was above 0.75 µM.

Turning to `CC(C)OC(=O)Nc1ccc2c(c1)nc(Nc1cccc(C(F)(F)F)c1)c1nc(NC3CC3)ncc12` [drawing 1640], the IC50 was above 0.75 µM.

As to `COC(=O)c1ccc2c(c1)nc(NC1CC1)c1nc(SC)ncc12` [drawing 1641], the 50% inhibitory concentration (IC50) was above 0.75 µM.

On to `CN(C)CCNc1nc2cc(C(=O)O)ccc2c2cnc(NC3CC3)nc12` [drawing 1642], for which the half-inhibitory concentration (IC50) was above 0.75 µM.

For `CN(C)c1ncc2c(n1)c(NC1CC1)nc1cc(C(=O)O)ccc12` [drawing 1647], the IC50 is above 0.75 µM.

Take `CC(=O)Nc1ccc2c(c1)nc(Nc1cccc(C(F)(F)F)c1)c1nc(NC3CC3)ncc12` [drawing 1649]: the concentration for half-maximal inhibition (IC50) is above 0.75 µM.

The same test, now with this note: read-out: CK2: IC50 (uM) (15 uM ATP); 15 uM ATP.
Regarding `COC(=O)c1ccc2c(c1)nc(Nc1cccc(Cl)c1)c1ccncc12` [drawing 731], the half-inhibitory concentration (IC50) is above 0.5 µM.

As for `COC(=O)c1ccc2c(c1)nc(Nc1ccccc1)c1nc(SC)ncc12` [drawing 732], the IC50 is above 0.5 µM.

For `COC(=O)c1ccc2c(c1)nc(Nc1ccccc1)c1nc(S(C)(=O)=O)ncc12` [drawing 733], the IC50 is above 0.5 µM.

For the compound `CNc1ncc2c(n1)c(Nc1ccccc1)nc1cc(C(=O)OC)ccc12` [drawing 734], the IC50 is above 0.5 µM.

Take `CCOc1ncc2c(n1)c(Nc1cccc(C(F)(F)F)c1)nc1cc(C(=O)O)ccc12` [drawing 755]: the IC50 is above 0.75 µM.

For the compound `CN(C)c1ncc2c(n1)c(Nc1cccc(Cl)c1)nc1cc(C(=O)O)ccc12` [drawing 757], the IC50 was above 0.75 µM.

As to `C#Cc1cccc(Nc2nc3cc(C(=O)OC)ccc3c3cnc(NOC)nc23)c1` [drawing 773], the IC50 is above 0.75 µM.

Regarding `COC(=O)c1ccc2c(c1)nc(Nc1cccc(Cl)c1)c1nc(NCCC(N)=O)ncc12` [drawing 774], the IC50 was above 0.75 µM.

In the case of `COC(=O)c1ccc2c(c1)nc(NC1CC1)c1nc(SCc3ccccc3Cl)ncc12` [drawing 775], the half-inhibitory concentration (IC50) is above 0.75 µM.

For `O=C(O)c1ccc2c(c1)nc(N1CCOCC1)c1nc(NC3CC3)ncc12` [drawing 791], the concentration for half-maximal inhibition (IC50) is above 0.75 µM.

For `NC(=O)c1ccc2c(c1)nc(Nc1cccc(C(F)(F)F)c1)c1nc(NC3CC3)ncc12` [drawing 796], the 50% inhibitory concentration (IC50) is above 0.75 µM.

For `O=C(NC1CC1)c1ccc2c(c1)nc(Nc1cccc(C(F)(F)F)c1)c1nc(NC3CC3)ncc12` [drawing 797], the IC50 was above 0.75 µM.

`CNC(=O)c1ccc2c(c1)nc(Nc1cccc(C(F)(F)F)c1)c1nc(NC3CC3)ncc12` [drawing 798]: the 50% inhibitory concentration (IC50) is above 0.75 µM.

Consider `CC(C)OC(=O)Nc1ccc2c(c1)nc(Nc1cccc(C(F)(F)F)c1)c1nc(NC3CC3)ncc12` [drawing 804], for which the IC50 was above 0.75 µM.

For the compound `COC(=O)c1ccc2c(c1)nc(NC1CC1)c1nc(SC)ncc12` [drawing 805], the IC50 is above 0.75 µM.

As for `CN(C)CCNc1nc2cc(C(=O)O)ccc2c2cnc(NC3CC3)nc12` [drawing 806], the 50% inhibitory concentration (IC50) is above 0.75 µM.

In the case of `CN(C)c1ncc2c(n1)c(NC1CC1)nc1cc(C(=O)O)ccc12` [drawing 810], the half-maximal inhibitory concentration (IC50) was above 0.75 µM.

As to `CC(=O)Nc1ccc2c(c1)nc(Nc1cccc(C(F)(F)F)c1)c1nc(NC3CC3)ncc12` [drawing 812], the concentration for half-maximal inhibition (IC50) was above 0.75 µM.

The same test, now with this note: read-out: CK2 IC50.
`COC(=O)c1ccc2c(c1)nc(Cl)c1ccsc12` [drawing 572]: the half-inhibitory concentration (IC50) was above 10 µM.

Take `O=C(NCCCO)c1ccc2c(c1)nc(NCCCO)c1ccsc12` [drawing 573]: the half-maximal inhibitory concentration (IC50) is above 10 µM.

For the compound `Clc1nc2ccccc2c2sccc12` [drawing 586], the half-inhibitory concentration (IC50) is above 5 µM.
